The assay concerns the target T1, Calcitonin receptor (Homo sapiens, UniProt P30988).
T1 sequence (P30988 whole entry): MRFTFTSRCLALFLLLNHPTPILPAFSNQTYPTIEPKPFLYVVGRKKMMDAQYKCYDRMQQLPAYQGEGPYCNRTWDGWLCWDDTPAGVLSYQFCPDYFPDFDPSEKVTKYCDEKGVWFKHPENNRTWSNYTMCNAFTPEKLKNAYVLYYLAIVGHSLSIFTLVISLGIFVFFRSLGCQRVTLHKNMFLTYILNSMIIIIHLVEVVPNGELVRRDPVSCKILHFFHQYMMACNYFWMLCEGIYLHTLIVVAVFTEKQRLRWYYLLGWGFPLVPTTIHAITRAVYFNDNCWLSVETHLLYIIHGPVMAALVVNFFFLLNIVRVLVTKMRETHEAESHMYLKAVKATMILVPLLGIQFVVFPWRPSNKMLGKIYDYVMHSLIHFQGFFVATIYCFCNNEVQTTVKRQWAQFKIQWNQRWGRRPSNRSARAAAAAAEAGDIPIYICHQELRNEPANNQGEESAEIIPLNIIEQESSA
The assay is described as follows: Inhibition of [125I]-salmon calcitonin (sCT) binding to human calcitonin receptor I1 expressed in HEK293 cells. In kind it is cell-based.

Structures are written as SMILES.

On to `CC[C@H](C)[C@H](NC(=O)[C@H](C)NC(=O)[C@@H](NC(=O)[C@H](CCC(N)=O)NC(=O)[C@@H]1CCCN1C(=O)[C@H](Cc1ccccc1)NC(=O)[C@@H](NC(=O)[C@H](Cc1c[nH]cn1)NC(=O)[C@H](Cc1ccccc1)NC(=O)[C@H](CCCCN)NC(=O)[C@H](CC(N)=O)NC(=O)[C@H](Cc1ccccc1)NC(=O)[C@H](CC(=O)O)NC(=O)[C@H](CCC(N)=O)NC(=O)[C@@H](NC(=O)[C@H](Cc1ccc(O)cc1)NC(=O)[C@@H](NC(=O)CNC(=O)[C@H](CC(C)C)NC(=O)[C@H](CCSC)NC(=O)[C@@H]1CSSC[C@H](N)C(=O)NCC(=O)N[C@@H](CC(N)=O)C(=O)N[C@@H](CC(C)C)C(=O)N[C@@H](CO)C(=O)N[C@@H]([C@@H](C)O)C(=O)N1)[C@@H](C)O)[C@@H](C)O)[C@@H](C)O)[C@@H](C)O)C(=O)NCC(=O)N[C@H](C(=O)NCC(=O)N[C@@H](C)C(=O)N1CCC[C@H]1C(N)=O)C(C)C`, for which the Ki was determined as 42.5 nM.

The Ki is the dissociation constant of the complex between target and ligand, obtained from inhibition or displacement.

Values taken from ChEMBL document CHEMBL1135734, “Side-chain lactam-bridge conformational constraints differentiate the activities of salmon and human calcitonins and reveal a new design concept for potent calcitonin analogues” (J Med Chem, 2002).
